From PubChem BioAssay AID2472 (National Center for Advancing Translational Sciences (NCATS), 2010)
“And” between values parts separate entries of the source, which are not always exact repeats. Equal values may be shown once. The list shows a part of the results, in another mix than the full data. The source made the active and inactive calls. No stated cut-off is given here; in the data, active means activity change below about -30%; inactive means the rest, inconclusive results apart.

Experiment: qHTS Assay for Inhibitors of Fructose-1,6-bisphosphate Aldolase from Giardia Lamblia: Coupling assay counterscreen
Settings: coupling enzyme system counterscreen, AmpLite Red fluorescence; at 58.2 µM (top of the series)
Text: MLPCN Grant: MH085699-01 Assay Provider: Osnat Herzberg, University of Maryland NCGC Assay Overview: The objective of this project is to obtain compounds that inhibit Giardia lamblia growth. G. lamblia is a human pathogen which afflicts impoverished nations; it is the most common cause of outbreaks of diarrhea in the United States. During the course of our study of potential drug targets in Giardia, we have identified the Class II (Zn2+ functions in electrophilic catalysis) fructose-1,6-bisphosphate aldolase (FBPA) as an excellent candidate for drug targeting. FBPA is a key glycolytic pathway enzyme, essential for G. lamblia survival. The human FBPA belongs to the Class I aldolases, which have a different substrate binding site structure and a radically different catalytic mechanism (employing a lysine-Schiff base intermediate). Therefore, affinity-based or mechanism-based inhibitors of the Giardia FBPA are expected not to interfere with the catalytic function of the human FBPA. A glyceraldehyde-3-phosphate dehydrogenase/triose phosphate isomerase/NAD/arsenate coupled assay was adapted to the 1536-well HTP format for use in the primary screen. This was done by coupling it to a diaphorase/resazurin/resorufin reaction that can be monitored by fluorescence (excitation, 544 nm; emission, 590 nm). Compounds identified in this screen will be further evaluated by coupling the […]/triose phosphate isomerase/NADH assay to a phenazine methosulfate/tetranitroblue tetrazolium color reaction. False positives due to the dehydrogenases and diaphorase inhibition will be eliminated, and selectivity assay will triage inhibitors of mammalian triose phosphate isomerase and the Class I FBPA. G. lamblia FBPA inhibitors identified by the in vitro analyses will be examined for growth inhibition of Giardia trophozoites, and for cytotoxicity in human cells. This assay specifically addresses whether activity observed in the primary screen (AID 2451) is related to inhibition of the coupling assay used, as opposed to inhibition of aldolase. Actives in this assay are considered inconclusive for activity against aldolase.
NCGC Assay Protocol: Step,Parameter,Value,Description 1,Coupling enzyme reagent,2 uL,glyceraldehyde-3-phosphate 2,Compound,23 nL,3.68 nM-57.5 uM final concentration 3,Time,10 min,RT Incubation 4,Substrate/detection Reagent,2 uL,Substrate + enzyme coupling system + AmpLite Red kit 5,Time,20 min,RT Incubation 6,Detector,525 nm/598 nm (Fluorescence),ViewLux Fluorescence Read (Read 1) Notes: 1,Medium-binding black solid-bottom Kalypsys plates. FRD or Kalypsys dispenser. 2,Compound Library (10 mM ,1:5 dilution). Pin-transferred for a [final] range of 3.68 nM-57.5 uM. 3,RT incubation 4,FRD or Kalypsys dispenser, 2 uL of reaction mixture. Bottle kept at 4C and covered in foil to protect from light. 5,RT incubation 6,ViewLux Protocol 1194; Excitation filter wheel A (525/20 Pol; BODIPY TMR FP), Emission filter wheel B (598/25 S; BODIPY TMR FP S). Keywords: Fructose-bisphosphate aldolase, FBPA , Giardia lamblia , Giardia, HTS, Inhibitors
On the % scale 0 is the no-effect control and ±100 the full control effect.

Row | Compound | activity change, negative = inhibition
1 | CC(=O)C1=CCCC2CCC1N2 (configuration not stated) | inactive: 1.33%
2 | CN(C)C(=O)OCCc1n(C)cc[n+]1C | inactive: 0.396%
3 | CC(C)=N/N=C(\N)N[N+](=O)[O-] | inactive: -2.52%
4 | CCN(/C(=N/P(=O)(N1CCOCC1)N1CCOCC1)N1CCOCC1)c1ccc(OC)cc1 | inactive: 1.14%
5 | C[N+]1=C2C=CC=CC=C2SC12C([N+](=O)[O-])=CC([N+](=O)[O-])=C[C-]2[N+](=O)[O-] (configuration not stated) | inactive: -19.6%
6 | Nc1ccc([As](=O)(O)c2ccc(N)cc2)cc1 | inactive: 0.531%
7 | O=[N+]([O-])c1cc([N+](=O)[O-])c(CCNc2ccccc2)c([N+](=O)[O-])c1 | inactive: -17.6%
8 | CCc1nc2c(n1)c1c(non1O)c1c2no[n+]1[O-] | inactive: -26%
9 | Cc1ccc(NP(=O)(Oc2ccccc2)Oc2ccccc2)nc1 | inactive: -1.33%
10 | CC(=O)N1C2C3N(C(C)=O)C1C1N(C(C)=O)C(C(N1C(C)=O)N3C(C)=O)N2C(C)=O | inactive: 4.34%
11 | O=[N+]([O-])c1cccc2n[nH]nc12 | inactive: 2%
12 | COc1ccc(C2=NCC(CBr)S2)cc1 (configuration not stated) | inactive: 0.589%
13 | O=C(O)CNc1ccc([As](=O)(O)O)cc1 | inactive: 4.78%
14 | O=[N+]([O-])c1cccc(NC2=NCC(CBr)S2)c1 (configuration not stated) | inactive: 3.97%
15 | O=[N+]([O-])c1ncn(CCn2ncnc2[N+](=O)[O-])n1 | inactive: -17.9%
16 | CC(C)(C)C(=O)NC(Sc1ccncn1)C(Cl)(Cl)Cl (configuration not stated) | inactive: -1.6%
17 | O=C(Nc1cc([As](=O)(O)O)ccc1O)c1ccccc1 | inactive: 2.93%
18 | Nc1cccc2ccc([As](=O)(O)O)cc12 | inactive: -16%
19 | CCN(N=Nc1nonc1N)c1nonc1N | inactive: -2.19%
20 | O=[N+]([O-])c1cc([N+](=O)[O-])c(CCN2CCOCC2)c([N+](=O)[O-])c1 | active: -32.1%
21 | Cc1ccc(NP(=O)(Oc2ccccc2F)Oc2ccccc2F)nc1 | inactive: 4.6%
22 | Cc1cc(SC(NC(=O)c2ccc(F)cc2)C(Cl)(Cl)Cl)ncn1 (configuration not stated) | inactive: -1.08%
23 | CCOP(=O)(Nc1ccccc1)OCC | inactive: -1.28% and inactive: 0.375%
24 | O=P(Nc1nc2ccc(Cl)cc2s1)(c1ccccc1)c1ccccc1 | inactive: 9.21%
25 | CC(=O)Nc1ccc([As](=O)(O)O)cc1 | inactive: 1.11%
26 | O=C(O)c1ccccc1[As](=O)(O)O | inactive: -3.83%

Row | Compound | activity change, negative = inhibition
27 | O=C(NC(Sc1ccncn1)C(Cl)(Cl)Cl)c1ccccc1 (configuration not stated) | inactive: -15.1%
28 | Cc1c2non([O-])c-2c(C)[n+](=O)[n+]1[O-] | active: -61.3%
29 | Oc1ccccc1CNc1ccccn1 | inactive: -13.2%
30 | Nc1cc(N)c2nonc2c1[N+](=O)[O-] | inactive: -10.6%
31 | CC(C)CC(=O)NC(Sc1ccc(Cl)cc1)C(Cl)(Cl)Cl (configuration not stated) | inactive: -0.401%
32 | CN1CCCC(OC(=O)C(c2ccccc2)c2ccccc2)C1 (configuration not stated) | inactive: 3.61%
33 | Clc1ccc(Cl)c(NC2=NCC(CBr)S2)c1 (configuration not stated) | inactive: -3.77%
34 | Cc1ccc(OP(=O)(Nc2nccs2)Oc2ccc(C)cc2)cc1 | inactive: -1.26%
35 | COc1ccccc1OP(=O)(Nc1ccc(C)cn1)Oc1ccccc1OC | inactive: -1.47%
36 | Cc1ccc(N/C(=N/P(=O)(N2CCOCC2)N2CCOCC2)N2CCOCC2)cc1 | inactive: 0.742%
37 | NC(=O)c1cc([N+](=O)[O-])cc([N+](=O)[O-])c1N | inactive: 2.15%
38 | CC(=O)Nc1ccc(Oc2c([N+](=O)[O-])cc([N+](=O)[O-])cc2[N+](=O)[O-])cc1 | inactive: 17.7%
39 | CC(=O)Nc1ccc([As](=O)(O)O)c(O)c1 | inactive: 1.71%
40 | C[C@H]1OP(=O)(Oc2ccccc2)C[C@@H]2O[C@@H]21 (some centres not stated) | inactive: 3.1%
41 | C[C@@H]1C=CCP(=O)(Oc2ccccc2)O1 (some centres not stated) | inactive: 0.348%
42 | CC(=O)c1ccc(N2CC2c2ccncc2)cc1 (configuration not stated) | inactive: 2.52%
43 | CC(C)(C)C(=O)NC(Sc1ccccc1)C(Cl)(Cl)Cl (configuration not stated) | inactive: 2.35%
44 | CCOc1ccc(C2=NCC(CBr)S2)cc1 (configuration not stated) | inactive: -0.82%
45 | O=P1(Nc2nc3ccc(Cl)cc3s2)COc2ccccc2O1 (configuration not stated) | inactive: 2.06%
46 | O=c1c2cc([N+](=O)[O-])ccc2[nH]c2c([N+](=O)[O-])cc([N+](=O)[O-])cc12 | inactive: -6.6%
47 | CN(C)C(=O)Oc1noc2ccccc12 | inactive: -0.301%
48 | Cc1ccccc1OP(=O)(Nc1ccccn1)Oc1ccccc1C | inactive: 4.38%
49 | CCC(=O)N1C2C3N(C(=O)CC)C1C1N(C(=O)CC)C(C(N1C(=O)CC)N3C(=O)CC)N2C(=O)CC | inactive: 3.53%
50 | O=C(OC1CN2CCC1CC2)c1ccccc1 (configuration not stated) | inactive: 0.288%
51 | Cc1ccc(OP(=O)(Nc2ccccn2)Oc2ccc(C)cc2)cc1 | inactive: -0.445%
52 | CC(=O)NC(SC(=S)N(CC(C)C)CC(C)C)C(Cl)(Cl)Cl (configuration not stated) | inactive: -0.687%

Row | Compound | activity change, negative = inhibition
53 | COC(=O)c1cc2c(s1)N=C(c1ccccc1)N(C)P2(=O)N1CCOCC1 (configuration not stated) | inactive: 1.92%
54 | CCOC(=O)NC(Sc1ccccc1)C(Cl)(Cl)Cl (configuration not stated) | inactive: 0.447%
55 | Cc1ccc(NP(=O)(Oc2cccc(C)c2)Oc2cccc(C)c2)nc1 | inactive: 2.4%
56 | c1ccc(-c2nn[nH]n2)c(-c2nn[nH]n2)c1 | inactive: 0.547%
57 | O=C(NC1CCS(=O)(=O)C1)NP(=S)(Oc1ccccc1)Oc1ccccc1 (configuration not stated) | inactive: 0.55%
58 | CCNC(=S)/N=C(\N)N[N+](=O)[O-] | inactive: -0.432%
59 | O=C(OC1CN2CCC1CC2)c1cccc(Cl)c1 (configuration not stated) | inactive: 1.13%
60 | C(Cc1nn[nH]n1)Cc1nn[nH]n1 | inactive: -13.5%
61 | Nc1ccc([As](=O)(O)c2ccc([N+](=O)[O-])cc2)cc1 | inactive: 2.65%
62 | O=[As](O)(c1ccccc1)c1ccc(O)cc1 | inactive: 0.302%
63 | O=[N+]([O-])c1ncn(CCn2cnc([N+](=O)[O-])n2)n1 | inactive: -9.6%
64 | CC(=O)NC(SC(=S)N(C)C)C(Cl)(Cl)Cl (configuration not stated) | inactive: 2.39%
65 | O=[N+]([O-])c1ccc(O)c(/C=N/Nc2ccc([N+](=O)[O-])cc2[N+](=O)[O-])c1 | inactive: 5.45%
66 | C[C@H]1OP(=O)(Oc2ccccc2)[C@H](O)[C@H](O)[C@H]1N=[N+]=[N-] (some centres not stated) | inactive: 3.37%
67 | O=P(Nc1nc2ccccc2s1)(c1ccccc1)c1ccccc1 | inactive: 2.98%
68 | CN(C)C1(CNC(=O)c2ccc(Cl)c(S(N)(=O)=O)c2)CCCCC1 | inactive: 3.2%
69 | O=P(Nc1ccccn1)(c1ccc(Br)cc1)c1ccc(Br)cc1 | inactive: -0.641%
70 | CCC(C)(OOC(C)(C)C)OOC(C)(C)C | inactive: -1.03%
71 | c1nnnn1CCn1cnnn1 | inactive: -0.0702%
72 | O=P(Nc1nccs1)(c1ccccc1)c1ccccc1 | inactive: -0.0177%
73 | CC(C)C(=O)NC(Sc1ccccc1)C(Cl)(Cl)Cl (configuration not stated) | inactive: 0.667%
74 | CC(C)/C=N\N=C(\N)N[N+](=O)[O-] | inactive: 4.75%
75 | O=[As](O)(c1ccccc1Br)c1ccccc1Br | inactive: -0.48%
76 | CC(C)(C)C(=O)NC(Sc1ncccn1)C(Cl)(Cl)Cl (configuration not stated) | inactive: 2.39%
77 | Clc1n[nH]nc1-c1nn[nH][15n]1 | inactive: -1.65%
78 | CCOP(=O)(NC(=NC(C)c1ccccc1)NC(C)c1ccccc1)OCC (configuration not stated) | inactive: 4.52%

Row | Compound | activity change, negative = inhibition
79 | CCC1=CC2Cc3nc4ccc(Cl)cc4c(N)c3C(C1)C2 (configuration not stated) | inactive: 3.6%
80 | O=P1(Nc2ccccn2)COc2ccccc2OC1 | inactive: 5.06%
81 | CCOP(=O)(Nc1ccc(C)cn1)OCC | inactive: 2.81%
82 | Nc1cccc([As](=O)(O)c2ccccc2)c1 | inactive: 3.47%
83 | O=[As](O)(c1cccs1)c1cccs1 | inactive: 0.0552%
84 | Cc1ccc(OCC(=O)OC2CN3CCC2CC3)cc1 (configuration not stated) | inactive: 1.09%
85 | O=P1(Nc2ccc(Br)cn2)COc2ccccc2OC1 | inactive: 1.4%
86 | O=P1(Nc2ncccn2)COc2ccccc2OC1 | inactive: -1.4%
87 | CN(C)C1(CNC(=O)c2ccc(S(C)(=O)=O)cc2)CCCCC1 | inactive: 3.32%
88 | O=C(/C=C/c1ccccc1)OC1CN2CCC1CC2 (configuration not stated) | inactive: 1.77%
89 | Cc1ccc(C(=O)OC2CN3CCC2CC3)cc1 (configuration not stated) | inactive: 5.1%
90 | CC1CCC(C(C)C)C(OP(=O)(Nc2ccccn2)c2ccccc2)C1 (configuration not stated) | inactive: 0.493%
91 | Cc1nn(-c2ccccc2)c2c1P(=O)(N1CCOCC1)N(C)C(c1ccccc1)=N2 (configuration not stated) | inactive: 1.88%
92 | CCOP1(=S)c2c(C)nn(CCC#N)c2N=C(c2ccc(F)cc2)N1C (configuration not stated) | inactive: 1.61%
93 | CN(C(=O)Cc1ccccc1)[C@@H]1CC[C@]2(CCCO2)C[C@H]1N1CCCC1 | inactive: 6.77%
94 | O=[N+]([O-])c1ccc2c(c1)nnn2O | inactive: 5.22%
95 | O=[N+]([O-])CC(O)c1ccc([N+](=O)[O-])cc1 (configuration not stated) | inactive: 4.32%
96 | NC(=O)Nc1ccc([As](=O)(O)O)cc1 | inactive: -0.644% and inactive: 0.88%
97 | O=C(O)COc1ccc([As](=O)(O)O)cc1[N+](=O)[O-] | inactive: 2.18%
98 | Nc1ccccc1[As](=O)(O)c1ccccc1 | inactive: 2.13%
99 | O=P(Nc1nccs1)(Oc1ccccc1)Oc1ccccc1 | inactive: 6.05%
100 | O=P(Nc1nccs1)(c1ccccc1)c1nc2ccccc2s1 (configuration not stated) | inactive: -0.651%
101 | CCOP1(=S)c2c(C)nn(CCC#N)c2N=C(c2ccccc2F)N1C (configuration not stated) | inactive: -0.361%
102 | CS(=O)(=O)c1cc([N+](=O)[O-])c2no[n+]([O-])c2c1 | active: -57.4%
